Patent US11400091B2, “AXL kinase inhibitors and use of the same” (Sumitomo Pharma Oncology, Inc., priority 2018, dated 2022)

Protein sequences, listed by entry. Tags and fused reporters are not part of them.
UniProt Q12809, whole entry: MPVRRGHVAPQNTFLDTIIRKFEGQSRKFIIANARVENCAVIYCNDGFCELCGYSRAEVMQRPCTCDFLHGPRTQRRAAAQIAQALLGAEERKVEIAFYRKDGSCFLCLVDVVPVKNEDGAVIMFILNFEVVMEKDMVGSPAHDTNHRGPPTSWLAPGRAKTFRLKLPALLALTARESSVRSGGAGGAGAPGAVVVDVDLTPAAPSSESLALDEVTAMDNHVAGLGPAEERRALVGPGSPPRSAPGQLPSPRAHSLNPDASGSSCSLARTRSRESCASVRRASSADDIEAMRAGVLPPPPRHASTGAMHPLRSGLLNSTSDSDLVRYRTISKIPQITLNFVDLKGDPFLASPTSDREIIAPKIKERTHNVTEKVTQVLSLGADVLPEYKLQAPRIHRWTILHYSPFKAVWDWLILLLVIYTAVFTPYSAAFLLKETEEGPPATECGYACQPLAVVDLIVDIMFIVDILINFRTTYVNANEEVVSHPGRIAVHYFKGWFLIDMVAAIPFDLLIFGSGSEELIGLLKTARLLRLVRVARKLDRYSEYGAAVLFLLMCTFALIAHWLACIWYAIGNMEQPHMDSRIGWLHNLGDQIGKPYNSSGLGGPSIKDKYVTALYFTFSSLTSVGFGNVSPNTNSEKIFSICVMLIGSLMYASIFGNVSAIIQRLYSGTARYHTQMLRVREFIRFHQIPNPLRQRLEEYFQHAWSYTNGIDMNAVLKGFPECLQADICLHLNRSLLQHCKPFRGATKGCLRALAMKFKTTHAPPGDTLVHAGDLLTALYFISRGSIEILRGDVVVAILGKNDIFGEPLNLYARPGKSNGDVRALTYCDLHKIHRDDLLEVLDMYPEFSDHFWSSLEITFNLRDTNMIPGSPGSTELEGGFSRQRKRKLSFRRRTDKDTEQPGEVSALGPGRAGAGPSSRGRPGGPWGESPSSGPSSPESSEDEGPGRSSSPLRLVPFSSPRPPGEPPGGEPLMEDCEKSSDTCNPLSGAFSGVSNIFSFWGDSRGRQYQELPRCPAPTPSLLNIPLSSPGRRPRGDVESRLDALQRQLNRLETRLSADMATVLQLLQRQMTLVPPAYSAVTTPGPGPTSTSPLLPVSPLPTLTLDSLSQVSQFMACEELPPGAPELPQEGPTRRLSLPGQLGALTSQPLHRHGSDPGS
UniProt P33261, whole entry: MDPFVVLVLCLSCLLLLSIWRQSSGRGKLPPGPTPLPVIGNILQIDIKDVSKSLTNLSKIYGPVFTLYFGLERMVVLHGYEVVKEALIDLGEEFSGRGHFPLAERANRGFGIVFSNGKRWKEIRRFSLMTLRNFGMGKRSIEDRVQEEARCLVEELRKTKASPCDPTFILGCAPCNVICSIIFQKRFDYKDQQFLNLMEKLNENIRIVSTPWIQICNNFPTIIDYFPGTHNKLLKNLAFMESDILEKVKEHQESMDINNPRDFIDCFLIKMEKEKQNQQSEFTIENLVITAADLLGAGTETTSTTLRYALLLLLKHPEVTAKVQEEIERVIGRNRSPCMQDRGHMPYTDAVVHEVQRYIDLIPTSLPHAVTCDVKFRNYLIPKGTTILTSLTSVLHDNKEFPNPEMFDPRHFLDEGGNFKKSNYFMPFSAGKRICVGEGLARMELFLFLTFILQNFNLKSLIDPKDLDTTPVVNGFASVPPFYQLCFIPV

Experiments:
[1] = Pharmacokinetic testing of salt forms, oral dosing; type: in vivo, Sprague-Dawley rats; settings: fasted male rats; PO 14.3-18.7 mg/kg (row Dose); mean; tested form: tartrate
[2] = Pharmacokinetic study free base v. tartrate salt, oral gavage; type: in vivo, Sprague-Dawley rats; settings: fasted male rats; PO in 20% solutol; nominal 20 mg/kg; tested form: tartrate
[3] = test system: 4T1 breast cancer syngraft; assay: 4T1 breast cancer syngraft, combination with PD-L1 antibody; settings: 16 day treatment schedule, tested form: tartrate
[4] = test system: 4T1 syngeneic (allograft) mouse model for breast cancer; assay: 4T1 syngeneic (allograft) model, combination with anti-PD-1 and radiation therapy; settings: tested form: tartrate
[5] = test system: iTregs; settings: tested form: tartrate
[6] = test system: 4T1 triple negative breast cancer mouse model; assay: ICB-resistant 4T1 syngeneic model, combination with anti-PD-1; settings: combination with anti-PD-1 versus tartrate salt monotherapy; p<0.05; tested form: tartrate
[7] = test system: H1650 NSCLC cell line; assay: H1650 cell viability (CellTiter-Glo); type: cell-based; settings: read-out: EC50, cell viability; tested form: tartrate
[8] = test system: Slug, E-cadherin; assay: EMT marker mRNA and protein expression in NSCLC cells; settings: following treatment; tested form: tartrate
[9] = test system: Phospho-AXL (Y702) in Kuramochi cells; assay: AXL phosphorylation in Kuramochi cells (western blot); type: cell-based; settings: 8 hrs; tartrate salt 100 nM; Cabozantinib 1 μM; tested form: tartrate
[10] = 28-day repeated oral dose toxicity and toxicokinetic study; settings: 28 days of repeated oral dosing; tested form: tartrate
[11] = 28-day repeated oral dose toxicity study with 14-day recovery; settings: end of treatment, tested form: tartrate
[12] = test system: H1650; settings: tested form: tartrate
[13] = test system: ES-2 cells; settings: tested form: tartrate
[14] = test system: ES-2 ovarian clear cell carcinoma; settings: Example 31; day 15; vehicle 7.96 cm; p<0.05; tested form: tartrate
[15] = target: hERG channel (Homo sapiens, UniProt Q12809); settings: tested form: tartrate
[16] = target: hERG in transfected HEK-293 cells (Homo sapiens, UniProt Q12809); settings: 1 µM; tested form: tartrate
[17] = target: CYP 2C19 (Homo sapiens, UniProt P33261); settings: tested form: tartrate
[18] = test system: Kuramochi; assay: Ovarian cancer cell line viability, dose response; settings: read-out: IC50 Activity; tested form: tartrate
[19] = test system: OVMANA; assay: Ovarian cancer cell line viability, dose response; settings: read-out: IC50 Activity; tested form: tartrate
[20] = test system: OVTOKO; assay: Ovarian cancer cell line viability, dose response; settings: read-out: IC50 Activity; tested form: tartrate
[21] = test system: Ovcar3; assay: Ovarian cancer cell line viability, dose response; settings: read-out: IC50 Activity; tested form: tartrate
[22] = test system: Ovcar8; assay: Ovarian cancer cell line viability, dose response; settings: read-out: IC50 Activity; tested form: tartrate
[23] = test system: Skov3; assay: Ovarian cancer cell line viability, dose response; settings: read-out: IC50 Activity; tested form: tartrate
[24] = test system: active DCs within tumors; assay: Active DCs in tumors by flow cytometry (CD86, CD11c); settings: 60 mg/kg; compared to vehicle; tested form: tartrate
[25] = Single and 7-day repeated oral dose toxicity and PK study; settings: up to 1.25 mg/kg/day oral for 7 days; tested form: tartrate

CN1CCN(Cc2ccc(Nc3ncc(Cl)c(Nc4ccccc4S(=O)(=O)N(C)C)n3)cc2)CC1
AUC0-24 hours [1]: 581 ng·h/mL | AUC0-24 hours [2]: 581 ng·h/mL | tumor growth inhibition (% TGI), combination with anti-PD-L1 ([3]; 60 mg/kg + anti-PD-L1 200 μg/mouse/dose): 87.3% | tumor growth inhibition (% TGI), single agent ([3]; tartrate salt 60 mg/kg, anti-PD-L1 200 μg/mouse/dose): 67.1% | tumor growth inhibition (% TGI), combination of all three ([4]; 18 day schedule, 25 mg/kg qd + anti-PD-1 10 mg/kg biw + single dose RT 12 GY): 57.7% | tumor growth inhibition (% TGI), single agent ([4]; 18 day treatment schedule, tartrate salt 25 mg/kg qd oral, anti-PD-1 10 mg/kg biw ip): 28.4% | EC50 [5]: 245 nM | tumor growth, combination with anti-PD-1 [6]: statistically significant tumor growth inhibition versus monotherapy | EC50 [7]: 39 nM | increase of E-cadherin expression [8]: 1.6 fold | inhibition of Slug mRNA expression [8]: ≤ 3.8 fold | Phospho-AXL (Y702) level [9]: reduced | No Observed Adverse Effect Level (NOAEL) [10]: 2 mg/kg/day | small intestine mucosal injury and inflammation (minimal or mild), dogs affected ([11]; high-dose, control 1 dog): 4 | colonic mucosa injury and inflammation (minimal or mild), animals affected ([11]; high-dose): four | thymic atrophy, animals affected ([11]; low-dose (0.1 mg/kg/day)): 1 out of 6 | thymic atrophy, animals affected ([11]; mid-dose (0.5 mg/kg/day)): 3 out of 6 | small intestine mucosal injury and inflammation (minimal or mild), dogs affected ([11]; mid-dose): 1 | tumor growth inhibition (% TGI), combination with osimertinib ([12]; 40 mg/kg + osimertinib 20 mpk, daily oral gavage): 140% | Activity [% TGI (dose level)] ([12]; Lung cancer (H1650, combination with Erlotinib), 25 mg/kg): 139.3(25 mg/kg) % | IC50 [13]: 20 nM | abdominal circumference [14]: 6.82 cm | IC50 [15]: > 1000 nM | inhibition [16]: > 50% | inhibition ([17]; 10 µM): > 50% | IC50 [17]: 4.4 µM | IC50 [18]: < 1000 nM | IC50 [19]: < 1000 nM | IC50 [20]: < 1000 nM | IC50 [21]: < 1000 nM | IC50 [22]: < 1000 nM | IC50 [23]: 1 to 10 µM | percent of activated DCs in tumors cells [24]: increased | toxicity [25]: no test article treatment-related significant toxicity
